Assay results reported in publication PMC8338886 (Clinical Cancer Research, 2021).

Molecular target: T1, Human PD-L2 (human, UniProt Q9BQ51)
T1 sequence: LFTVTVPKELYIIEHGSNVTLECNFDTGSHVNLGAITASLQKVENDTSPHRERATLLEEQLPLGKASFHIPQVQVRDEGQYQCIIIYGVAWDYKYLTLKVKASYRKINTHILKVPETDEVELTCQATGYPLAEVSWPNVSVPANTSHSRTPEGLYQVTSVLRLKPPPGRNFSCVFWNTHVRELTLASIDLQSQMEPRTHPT
Test: SPR

B1: sPD-1 wild-type Fc (Fc fusion)
chain: LDSPDRPWNPPTFSPALLVVTEGDNATFTCSFSNTSESFVLNWYRMSPSNQTDKLAAFPEDRSQPGQDCRFRVTQLPNGRDFHMSVVRARRNDSGTYLCGAISLAPKAQIKESLRAELRVTERRAEVPTAHPSPSPRPAGQFQTLV
Q: With B1 as the binder, how does the Kd read?
A: Its Kd is 547 nM.
